This passage reports T50 results from patent US20080292586A1 (priority 2005, published 2008).

This series deals with MDBK cells.

Regarding Interferon alpha 2a, the T50 is more than 1000 IU.
